Reference: US6962920B2, “Pyrimidine derivatives and methods of making and using these derivatives” (Duquesne University of the Holy Ghost, priority 1992, dated 2005)

Sequences of proteins named here, by UniProt entry; tags and fusion partners are left off.
UniProt P0A884, whole entry: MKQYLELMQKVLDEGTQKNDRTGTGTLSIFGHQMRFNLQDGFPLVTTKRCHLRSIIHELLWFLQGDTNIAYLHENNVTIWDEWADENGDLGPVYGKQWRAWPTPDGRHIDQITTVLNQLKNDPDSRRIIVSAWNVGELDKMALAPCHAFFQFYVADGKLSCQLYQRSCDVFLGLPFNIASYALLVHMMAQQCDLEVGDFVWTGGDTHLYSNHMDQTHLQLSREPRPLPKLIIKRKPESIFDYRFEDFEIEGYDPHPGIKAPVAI
UniProt P00469, whole entry: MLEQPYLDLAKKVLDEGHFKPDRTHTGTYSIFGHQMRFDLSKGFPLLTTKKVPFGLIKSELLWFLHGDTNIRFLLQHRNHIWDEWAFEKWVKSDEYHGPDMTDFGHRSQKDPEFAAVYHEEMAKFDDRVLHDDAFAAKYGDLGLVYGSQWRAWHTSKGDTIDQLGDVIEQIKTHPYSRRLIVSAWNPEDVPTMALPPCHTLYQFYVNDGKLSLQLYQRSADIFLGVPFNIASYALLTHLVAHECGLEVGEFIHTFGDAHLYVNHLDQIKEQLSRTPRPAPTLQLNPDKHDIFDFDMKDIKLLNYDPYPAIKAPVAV

Assays:
FaDu = experiment: Growth inhibition of FaDu human squamous carcinoma cell line; format: cell-based; conditions: Table 15, continuous (120 hours) exposure
[1] = biological target: E-coli thymidylate synthase (ecTS) (Escherichia coli, UniProt P0A884); experiment: Inhibition of E. coli thymidylate synthase; format: biochemical; conditions: Table 13; at the concentration given
L. casei TS = L. casei TS (Lacticaseibacillus casei, UniProt P00469); experiment: Inhibition of thymidylate synthase (TS), L. casei; format: biochemical, Lactobacillus casei; conditions: Table 13; at the concentration given

Row | Compound | EC50 (FaDu; read-out: Growth inhibition EC50, FaDu) [µM] | % in parentheses after the > value, E. Coli TS [1] [%] | % in parentheses after the > value, L. Casei TS (L. casei TS) [%] | Growth inhibition EC50, FaDu (FaDu)
1 | COc1ccc(Sc2c(C)[nH]c3nc(N)[nH]c(=O)c23)cc1OC | > 10 | 30 | 33 | –
2 | Cc1[nH]c2nc(N)[nH]c(=O)c2c1Sc1ccc(Cl)c(Cl)c1 | – | – | – | insoluble
